Assay results: article PMC6009971

Protein sequences, listed by entry. Tags and fused reporters are not part of them. Residues count along the entry.
UniProt O43570, 30-289 limits assumed: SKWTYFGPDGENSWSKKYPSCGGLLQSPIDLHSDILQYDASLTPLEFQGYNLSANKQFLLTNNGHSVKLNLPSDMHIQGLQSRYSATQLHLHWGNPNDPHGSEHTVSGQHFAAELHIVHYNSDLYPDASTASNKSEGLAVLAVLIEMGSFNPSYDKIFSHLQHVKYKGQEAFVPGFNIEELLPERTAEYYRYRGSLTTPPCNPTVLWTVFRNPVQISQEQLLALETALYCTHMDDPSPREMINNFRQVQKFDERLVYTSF
UniProt P00915, 2-261 limits assumed: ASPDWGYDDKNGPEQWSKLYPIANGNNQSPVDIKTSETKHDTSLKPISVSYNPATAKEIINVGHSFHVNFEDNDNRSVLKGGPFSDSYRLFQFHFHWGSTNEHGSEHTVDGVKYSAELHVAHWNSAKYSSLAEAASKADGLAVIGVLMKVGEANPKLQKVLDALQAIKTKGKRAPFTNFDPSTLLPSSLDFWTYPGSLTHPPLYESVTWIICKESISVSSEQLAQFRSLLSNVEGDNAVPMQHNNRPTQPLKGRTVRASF

Legend:
Assay in all cases: stopped-flow CO2 hydration assay
hCA XII = hCA XII (Homo sapiens, UniProt O43570); settings: read-out: Ki ^* (μm) ^* / hCA XII^b; CO2 1.7-17 mM, 10 mM HEPES pH 7.5, 0.1 M Na2SO4, 25 °C, 15 min pre-incubation; unit printed μm means µM
hCA II = hCA II (Homo sapiens, UniProt P00918); settings: CO2 1.7-17 mM, 10 mM HEPES pH 7.5, 0.1 M Na2SO4, 25 °C, 15 min pre-incubation, unit printed μm means µM
hCA IX = hCA IX (Homo sapiens, UniProt Q16790); settings: read-out: Ki ^* (μm) ^* / hCA IX^b; CO2 1.7-17 mM, 10 mM HEPES pH 7.5, 0.1 M Na2SO4, 25 °C, 15 min pre-incubation; unit printed μm means µM
hCA I = hCA I (Homo sapiens, UniProt P00915); settings: CO2 1.7-17 mM, 10 mM HEPES pH 7.5, 0.1 M Na2SO4, 25 °C, 15 min pre-incubation, unit printed μm means µM
[1] = read-out: Selectivity ratios / I/IX
[2] = read-out: Selectivity ratios / I/XII

Row | SMILES | Ki (hCA XII) | Ki (hCA II; [1]) | Ki (hCA IX) | Ki (hCA I; [1]) | Ki (hCA II; [2]) | Ki (hCA I; [2])
1 | Cc1ccc(S(=O)(=O)N(Cc2ccccc2)/C(F)=C\C=C\c2ccccc2)cc1 | 0.366 µM | > 100 µM | 0.021 µM | > 100 µM | – | –
2 | Cc1ccc(S(=O)(=O)N(Cc2ccccc2)/C(F)=C\c2ccsc2)cc1 | 4.08 µM | > 100 µM | 0.038 µM | > 100 µM | – | –
3 | Cc1ccc(S(=O)(=O)N(Cc2ccccc2)/C(F)=C\c2ccccc2C)cc1 | 0.12 µM | – | > 50 µM | – | > 100 µM | > 100 µM
4 | O=C1c2ccccc2C(=O)N1/C(F)=C\c1ccccc1 | 0.116 µM | – | > 10 µM | – | > 100 µM | > 100 µM
5 | Cc1ccc(S(=O)(=O)N(Cc2ccccc2)/C(F)=C\c2cccs2)cc1 | > 50 µM | > 100 µM | 1 µM | > 100 µM | – | –

Where two headings read alike, the source gives them in different places.
